Measurements reported in the NIST ThermoML archive (doi:10.1016/j.fluid.2016.07.025).

Conditions: Rayleigh light scattering; for thermal diffusivity: Fluid (supercritical or subcritical phases); for speed of sound: Liquid

CCCCOCCCC [dibutyl ether]
Conditions	speed of sound [m/s]	thermal diffusivity [m2/s]
591.6 K, 4000 kPa	–	4.36e-08
591.7 K, 6500 kPa	–	5.6e-08
592.77 K, 3500 kPa	114.69	3.43e-08
592.77 K, 3750 kPa	–	3.45e-08
592.89 K, 4000 kPa	–	4.27e-08
592.89 K, 4500 kPa	–	4.96e-08
593.04 K, 4500 kPa	183.43	–
593.39 K, 5500 kPa	233.22	5.39e-08
593.6 K, 6500 kPa	267.17	–
593.77 K, 6500 kPa	–	5.59e-08
593.77 K, 7500 kPa	296.8	5.73e-08
594.02 K, 4500 kPa	–	4.93e-08
594.73 K, 3750 kPa	–	3.31e-08
594.73 K, 4000 kPa	–	4.12e-08
594.85 K, 3500 kPa	–	4.25e-08
595.35 K, 5500 kPa	–	5.37e-08
595.98 K, 4500 kPa	–	4.88e-08
596.07 K, 4000 kPa	–	4.06e-08
596.74 K, 6500 kPa	–	5.58e-08
596.74 K, 7500 kPa	–	5.73e-08
596.78 K, 3500 kPa	–	5.4e-08
596.78 K, 3750 kPa	–	3.2e-08
596.85 K, 5500 kPa	–	5.36e-08
598.77 K, 5500 kPa	–	5.34e-08
598.89 K, 6500 kPa	–	5.57e-08
598.89 K, 7500 kPa	–	5.74e-08
598.96 K, 3500 kPa	90.21	6.51e-08
598.96 K, 3750 kPa	–	3.34e-08
599.04 K, 4000 kPa	–	3.9e-08
599.12 K, 4500 kPa	–	4.77e-08
599.73 K, 4500 kPa	148.57	–
599.77 K, 5500 kPa	205.29	–
599.79 K, 6500 kPa	243.74	–
599.89 K, 7500 kPa	273.8	–
601.45 K, 5500 kPa	–	5.32e-08
601.54 K, 3500 kPa	–	7.51e-08
601.54 K, 3750 kPa	–	4.06e-08
601.54 K, 4000 kPa	–	3.83e-08
601.54 K, 4500 kPa	–	4.72e-08
603.05 K, 4500 kPa	–	4.71e-08
603.12 K, 4000 kPa	–	3.84e-08
603.27 K, 6500 kPa	–	5.56e-08
603.27 K, 7500 kPa	–	5.75e-08
603.82 K, 4500 kPa	132.6	–
603.96 K, 3500 kPa	95.38	8.55e-08
603.96 K, 3750 kPa	–	5.1e-08
603.99 K, 5500 kPa	189.07	5.31e-08
604.21 K, 6500 kPa	227.74	–
604.27 K, 7500 kPa	258.48	–
606.15 K, 3500 kPa	–	9.18e-08
606.15 K, 3750 kPa	–	6.01e-08
606.15 K, 4000 kPa	–	3.93e-08
606.15 K, 4500 kPa	–	4.69e-08
607.34 K, 4500 kPa	126.78	–
607.52 K, 5500 kPa	175.37	–
607.76 K, 3500 kPa	102.4	–
607.96 K, 6500 kPa	215.37	–
608.05 K, 4000 kPa	–	4.03e-08
608.2 K, 6500 kPa	–	5.56e-08
608.2 K, 7500 kPa	244.31	5.77e-08
608.32 K, 4500 kPa	–	4.68e-08
608.52 K, 5500 kPa	–	5.29e-08
608.76 K, 3500 kPa	–	9.76e-08
608.76 K, 3750 kPa	–	6.8e-08
611.06 K, 3500 kPa	–	1.02e-07
611.06 K, 3750 kPa	–	7.39e-08
611.06 K, 4000 kPa	–	4.62e-08
611.06 K, 4500 kPa	–	4.67e-08
612.08 K, 6500 kPa	204.42	–
612.41 K, 4500 kPa	119.01	–
612.44 K, 7500 kPa	231.43	–
612.76 K, 5500 kPa	155.8	5.29e-08
613.1 K, 4000 kPa	–	5.12e-08
613.13 K, 3500 kPa	–	1.06e-07
613.13 K, 3750 kPa	–	7.87e-08
613.18 K, 4500 kPa	–	4.67e-08
613.44 K, 6500 kPa	–	5.57e-08
613.44 K, 7500 kPa	–	5.8e-08
614.13 K, 3500 kPa	114.25	–
617.26 K, 4500 kPa	117.55	–
617.59 K, 5500 kPa	146.8	–
617.77 K, 3500 kPa	120.4	–
617.89 K, 6500 kPa	190.53	–
618.03 K, 7500 kPa	215.06	–
622.62 K, 4500 kPa	123.77	–
622.88 K, 5500 kPa	141.99	–
623.3 K, 6500 kPa	178.81	–
623.42 K, 7500 kPa	202.08	–
624.61 K, 3500 kPa	132.31	–
627.48 K, 4500 kPa	131.02	–
627.58 K, 5500 kPa	142.32	–
628.12 K, 6500 kPa	174.89	–
628.37 K, 3500 kPa	138.25	–
628.37 K, 7500 kPa	195.46	–
632.52 K, 4500 kPa	139.67	–
632.87 K, 5500 kPa	144.73	–
633.02 K, 3500 kPa	146.63	–
633.36 K, 6500 kPa	169.7	–
633.89 K, 7500 kPa	188.26	–
636.92 K, 6500 kPa	166.48	–
637.28 K, 4500 kPa	147.53	–
637.41 K, 7500 kPa	184.9	–
637.84 K, 5500 kPa	148.3	–
640.05 K, 3500 kPa	158.02	–
643.67 K, 3500 kPa	164.41	–
644.05 K, 6500 kPa	165.61	–
644.15 K, 5500 kPa	155.54	–
644.29 K, 4500 kPa	159.81	–
644.35 K, 7500 kPa	182.38	–
648.28 K, 6500 kPa	165.79	–
648.38 K, 7500 kPa	183.05	–
649.22 K, 5500 kPa	165.88	–
649.31 K, 4500 kPa	169.65	–
649.66 K, 3500 kPa	174.95	–
651.37 K, 6500 kPa	168.71	–
651.47 K, 7500 kPa	183.8	–
652.78 K, 3500 kPa	182.03	–
653.1 K, 5500 kPa	173.23	–
653.61 K, 4500 kPa	178.48	–
657.54 K, 5500 kPa	181.63	–
658.91 K, 4500 kPa	189.3	–
659.26 K, 3500 kPa	195.63	–
659.56 K, 6500 kPa	180.93	–
659.71 K, 7500 kPa	190.24	–
663.28 K, 7500 kPa	193.08	–
663.77 K, 3500 kPa	204.23	–
663.99 K, 4500 kPa	199.13	–
664.58 K, 6500 kPa	192.76	–
664.68 K, 5500 kPa	197.15	–
668.06 K, 5500 kPa	204.67	–
668.13 K, 6500 kPa	200.59	–
668.18 K, 4500 kPa	208.75	–
668.2 K, 3500 kPa	214.84	–
668.28 K, 7500 kPa	199.93	–
672.69 K, 3500 kPa	224.44	–
673.3 K, 4500 kPa	220	–
673.3 K, 5500 kPa	214.18	–
673.38 K, 6500 kPa	210.65	–
673.39 K, 7500 kPa	207.8	–
